For the experiment, the target named is recombinant rat GluN1/GluN2C receptors (NR2C) (Rattus norvegicus (Rat), UniProt P35439+Q00961). The experiment can be described thus: Two-electrode voltage-clamp recordings, Xenopus laevis oocytes, NR2C. The experiment is classed as cell-based. Particulars: head prints IC50; method describes EC50 of potentiator. The protocol: Two-electrode voltage-clamp recordings were made from Xenopus laevis oocytes expressing recombinant rat GluN1/GluN2A, GluN1/GluN2B, GluN1/GluN2C, GluN1/GluN2D, GluA1, or GluK2 receptors following injection of 5-10 ng of cRNA synthesized according to manufacturers' protocols (Ambin, mMessage, mMachine). cDNAs used were rat GluN1-1a (GenBank accession numbers U11418 and U08261; hereafter GluN1), GluN2A (D13211), GluN2B (U11419), GluN2C (M91563), GluN2D (L31611), GluA1 (X17184), GluK2 (Z11548). The current under voltage-clamp was recorded during perfusion with recording solution containing (in mM) 90 NaCl, 1.0 KCl, 0.5 BaCl2, 0.005 EDTA, and 10 HEPES at pH 7.4 (23° C.). Glass micropipettes had resistances of 0.3-1.0 MS2 and were filled with 3.0 M KCl. The membrane potential was clamped at −40 mV during the experiment. Recordings were digitized at 10 Hz and analyzed off line. 20 mM stock solutions of test compounds in 100% DMSO were made and diluted to obtain the final concentration; final DMSO content was 0.05-0.5% (vol/vol). […] NMDA receptor responses were obtained by challenging oocytes with 100 μM glutamate plus 30 μM glycine; GluA1 and GluK2 receptors responses were recorded during application of 100 μM glutamate. We recorded the response to 5-7 concentrations of test drug co-applied with glutamate and glycine in 5 or more oocytes obtained from two different frogs. […]

By UniProt entry, the sequences of proteins in these tests, tags left out. Residues count along the entry.
UniProt Q00961, 20-1237: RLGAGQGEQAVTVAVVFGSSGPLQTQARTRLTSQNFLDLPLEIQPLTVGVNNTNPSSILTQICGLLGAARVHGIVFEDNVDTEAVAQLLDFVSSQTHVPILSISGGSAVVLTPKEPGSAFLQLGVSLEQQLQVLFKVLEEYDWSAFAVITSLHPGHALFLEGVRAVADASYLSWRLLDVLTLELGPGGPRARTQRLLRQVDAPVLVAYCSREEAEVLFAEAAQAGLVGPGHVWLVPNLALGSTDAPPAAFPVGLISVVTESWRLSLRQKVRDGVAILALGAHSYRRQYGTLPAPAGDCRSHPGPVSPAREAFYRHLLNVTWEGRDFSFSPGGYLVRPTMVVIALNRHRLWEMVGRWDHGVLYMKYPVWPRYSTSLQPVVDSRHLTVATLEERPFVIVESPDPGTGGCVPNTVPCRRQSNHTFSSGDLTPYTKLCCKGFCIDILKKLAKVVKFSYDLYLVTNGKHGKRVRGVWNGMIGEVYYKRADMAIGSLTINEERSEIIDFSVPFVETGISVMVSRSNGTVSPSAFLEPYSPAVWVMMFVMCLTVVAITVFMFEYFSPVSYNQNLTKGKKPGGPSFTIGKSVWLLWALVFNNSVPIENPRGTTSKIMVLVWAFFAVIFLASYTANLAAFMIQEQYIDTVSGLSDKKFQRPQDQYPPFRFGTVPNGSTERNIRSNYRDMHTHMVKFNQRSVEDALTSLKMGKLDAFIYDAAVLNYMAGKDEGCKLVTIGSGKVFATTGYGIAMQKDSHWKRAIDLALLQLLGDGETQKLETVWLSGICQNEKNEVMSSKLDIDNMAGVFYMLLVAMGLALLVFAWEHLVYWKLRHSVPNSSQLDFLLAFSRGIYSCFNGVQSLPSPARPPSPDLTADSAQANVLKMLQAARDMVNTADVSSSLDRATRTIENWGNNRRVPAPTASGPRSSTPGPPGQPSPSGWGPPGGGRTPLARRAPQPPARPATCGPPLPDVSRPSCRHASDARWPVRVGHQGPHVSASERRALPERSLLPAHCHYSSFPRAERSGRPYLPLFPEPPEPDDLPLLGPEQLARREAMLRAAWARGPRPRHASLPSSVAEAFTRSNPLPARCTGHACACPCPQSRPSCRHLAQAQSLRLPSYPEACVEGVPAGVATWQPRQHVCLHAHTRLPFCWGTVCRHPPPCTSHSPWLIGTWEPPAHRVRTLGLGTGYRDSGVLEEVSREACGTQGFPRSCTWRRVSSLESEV

For `COC(=O)c1ccc(C2C(C(C)=O)=C(O)C(=O)N2CCc2c[nH]c3ccccc23)cc1` (stereo not shown), the EC50 (potentiation) is 24 µM.
